# Source: patent US20030176678A1 (YEDA RESEARCH AND DEVELOPMENT, published 2003)
# B1: GST alone (Glutathione S-transferase) (other, UniProt P08515 1-218, looked up)
# chain: MSPILGYWKIKGLVQPTRLLLEYLEEKYEEHLYERDEGDKWRNKKFELGLEFPNLPYYIDGDVKLTQSMAIIRYIADKHNMLGGCPKERAEISMLEGAVLDIRYGVSRIAYSKDFETLKVDFLSKLPEMLKMFEDRLCHKTYLNGDHVTHPDFMLYDALDVVLYMDPMCLDAFPKLVCFKKRIEAIPQIDKYLKSSKYIAWPLQGWQATFGGGDHPPK
# notes: Control beads of the pull-down
# Target: T1, flag-IR1B4 (IR1B4 protein with a flag tag, translated in vitro in rabbit reticulocyte lysate, [35S]methionine … (human, [35S]methionine label)
# T1 construct: Made from the XhoI insert of pACT-IR1B4; In the Cos-7 experiment the same construct was expressed in cells; also called IR1B4-flag; flg-IR1B4
# Assay: GST pull-down on glutathione beads, SDS-PAGE, Phosphor-Imager
binder,measurement,value
B1,binding result,no binding
